Experimental data from patent US20120214775A1, “Pharmaceutical Salts of 3-O-(3',3'-Dimethylsuccinyl) Betulinic Acid” (priority 2004, published 2012).

Experiment: Qualitative solubility of salt forms in solvent systems (appearance at attempted concentration)
Assay type: physicochemical

Appearance (Captex 200 81%, Vitamin E TPGS 15%, DMA 4%, attempted 25.5 mg/mL, 40-45° C.): Solution cloudy, some
Appearance (Captex 200 82%, Vitamin E TPGS 16%, DMA 2%, attempted 24.5 mg/g, 40-45° C.): Solution cloudy, some
Appearance (Captex 200 100%, attempted 24.7 mg/g): Solution cloudy
Appearance (Hydroxypropyl-β-cyclodextrin 10% (in water), attempted 50.0 mg/mL): clear
Appearance (Hydroxypropyl-β-cyclodextrin 10% (in water), attempted 50.0 mg/mL, listed as DSB—(NmG)2): Solution clear, but foam
Appearance (Water 56%, PEG 400 40%, Propylene Glycol 4%, attempted 50.9 mg/mL): apparently undissolved
Appearance (Water 67%, PEG 400 29%, Ethanol 4%, attempted 50.8 mg/mL): Solution clear, initially
Appearance (Water 75%, PEG 400 11%, Vitamin E TPGS 10%, Ethanol 4%, attempted 50.8 mg/mL, 40-45° C.): Solution clear, very
Appearance (Water 75%, PEG 400 12%, Vitamin E TPGS 10%, Ethanol 3%, attempted 50.1 mg/mL, 40-45° C.): Solution clear, very
Appearance (Water 75%, PEG 400 13%, Vitamin E TPGS 10%, Ethanol 2%, attempted 50.9 mg/mL, 40-45° C.): Undissolved drug, very
Appearance (Water 78%, PEG 400 18%, Ethanol 4%, attempted 51.2 mg/mL): Solution clear, initially
Appearance (Water 83%, PEG 400 7%, Propylene Glycol 6%, Ethanol 4%, attempted 51.7 mg/mL): Solution clear, initially
Appearance (Water 84%, PEG 400 10%, Ethanol 4%, Vitamin E TPGS 2%, attempted 40.4 mg/g, 40-45° C.): dissolved, but solution
Appearance (Water 84%, PEG 400 11%, Ethanol 4%, Simethicone Emulsion 1%, attempted 50.5 mg/mL): Solution cloudy, some
Appearance (Water 86%, PEG 400 10%, Ethanol 4%, attempted 67.3 mg/mL): Solution clear
Appearance (Water 89%, PEG 400 7%, Ethanol 4%, attempted 50.1 mg/mL): Solution clear, initially
Appearance (Water 96%, DMA 4%, attempted 52.2 mg/mL): Solutions clears with
Appearance (Water 96%, DMA 4%, attempted 71.2 mg/mL): Solution cloudy
Appearance (Water 96%, Ethanol 4%, attempted 50.1 mg/mL): Solution clear, initially
Appearance (Water 100%, attempted 2.4 mg/mL): Solution cloudy
SMILES: C=C(C)[C@@H]1CC[C@]2(C(=O)O)CC[C@]3(C)[C@H](CC[C@@H]4[C@@]5(C)CC[C@H](OC(=O)CC(C)(C)C(=O)O)C(C)(C)[C@@H]5CC[C@]43C)[C@@H]12 [DSB-(NmG)2, di-(N-methyl-D-glucamine) salt of 3-O-(3′,3′-dimethylsuccinyl) betulinic acid]

Where a name gives a salt, the structure may show the parent alone.
